The values below come from patent publication US9340577B2, “HLA binding motifs and peptides and their uses” (priority 1992, dated 2016).

Holding throughout (assay): biochemical
Experiment [1] deals with A*2902 (Homo sapiens, UniProt P04439, A270S/D101N/D185E/E176V/E277Q/E87Q/F33T/G231S/H175R/I121M/I218V/I322F/K168Q/L300P/L318F/M331R/P208A/P217A/Q86L/T323A/T345S/V100A/V358M). The class given is binding.
For experiment [2], the target named is HLA-A*0201 (HLA-A2.1) (Homo sapiens, UniProt P04439, D140Y/D185E/D98H/E176V/E277Q/G131W/G231S/I119V/I121R/I166T/I218V/L300P/L318F/N151K/N90K/P208A/P217A/Q86G/Q94H/R138H/R169H/T345S).
Experiment [3] has as its target DRB1*0405 (Homo sapiens, UniProt P01903+P01911, A100R/A169T/D86S/F76Y/I96L/K127E/L162R/M171V/N62H/P40V/Q125Y/R42H/S133A/S149N/S66Y/V115G/V209L/W38E). It is filed as binding.
Experiment [4] deals with DRB1*0802 (Homo sapiens, UniProt P01903+P01911, A100R/A103L/A169T/F76Y/H45Y/I96F/K41T/L162R/M171V/P40S/Q125H/Q178H/Q39Y/Q99D/R218S/R42G/S66Y/V115G/W38E).
Experiment [5] concerns the target DRB1*1501 (Homo sapiens, UniProt P01903+P01911).
For experiment [6], the target named is DRB1*1302 (Homo sapiens, UniProt P01903+P01911, A100E/A169T/K41T/L162R/M171V/P40S/Q125H/Q178H/Q39Y/Q99D/R42S/S66N/T262R/V115G/W38E/Y61H).

Like-named read-outs stand apart in the source and are kept apart here.

As for `CC[C@H](C)[C@H](NC(=O)[C@H](CCC(=O)O)NC(=O)[C@H](CC(C)C)NC(=O)[C@H](C)NC(=O)[C@H](CO)NC(=O)[C@@H](NC(=O)[C@@H](N)CC(C)C)[C@@H](C)O)C(=O)N1CCC[C@H]1C(=O)N[C@@H](Cc1ccc(O)cc1)C(=O)O` [Peptide 1549.40], in experiment [1], the IC50 worked out at 183 nM. In the case of `CC(C)C[C@H](NC(=O)[C@H](CC(C)C)NC(=O)[C@@H](N)CO)C(=O)N[C@H](C(=O)N[C@@H](Cc1ccccc1)C(=O)N[C@@H](Cc1c[nH]c2ccccc12)C(=O)N[C@@H](CC(N)=O)C(=O)N1CCC[C@H]1C(=O)N1CCC[C@H]1C(=O)N[C@H](C(=O)N[C@H](C(=O)O)C(C)C)[C@@H](C)O)[C@@H](C)O` [Peptide 9013.0256], the IC50 in experiment [2] amounted to 55 nM. With `CC[C@H](C)[C@H](NC(=O)[C@H](CC(N)=O)NC(=O)[C@H](CO)NC(=O)[C@@H](NC(=O)[C@@H](NC(=O)[C@H](CC(C)C)NC(=O)[C@H](CC(C)C)NC(=O)[C@@H]1CCCN1C(=O)[C@@H]1CCCN1C(=O)[C@H](CS)NC(=O)[C@H](CCCCN)NC(=O)[C@H](CC(C)C)NC(=O)[C@H](CCC(N)=O)NC(=O)[C@@H](NC(=O)[C@@H](N)CC(C)C)C(C)C)[C@@H](C)CC)[C@@H](C)O)C(=O)O` [Peptide 89.0021], the IC50 in experiment [3] amounted to 7580 nM. With `CC[C@H](C)[C@H](NC(=O)[C@@H](NC(=O)[C@H](CC(C)C)NC(=O)[C@H](CC(=O)O)NC(=O)[C@@H](NC(=O)[C@@H](NC(=O)[C@H](C)N)[C@@H](C)O)[C@@H](C)O)[C@@H](C)O)C(=O)N[C@H](C(=O)N[C@@H](Cc1ccc(O)cc1)C(=O)O)C(C)C` [Peptide 1549.51], the IC50 in experiment [1] came to 194 nM. As for `CC[C@H](C)[C@H](NC(=O)[C@H](C)NC(=O)[C@H](CCC(N)=O)NC(=O)[C@H](CC(C)C)NC(=O)[C@H](C)NC(=O)[C@H](CCCCN)NC(=O)[C@@H](N)CC(N)=O)C(=O)N[C@@H](CCC(=O)O)C(=O)N[C@@H](CC(C)C)C(=O)N[C@@H](CCC(N)=O)C(=O)N[C@@H](CC(C)C)C(=O)N[C@H](C(=O)N[C@@H](CC(C)C)C(=O)N[C@@H](CCC(=O)O)C(=O)N[C@H](C(=O)O)[C@@H](C)O)[C@@H](C)O` [Peptide 89.0151], the IC50 was 3960 nM in experiment [3] and 15200 nM in experiment [4]. Regarding `CC[C@H](C)[C@H](NC(=O)[C@H](CCC(N)=O)NC(=O)[C@@H](NC(=O)[C@@H](N)CCC(=O)O)C(C)C)C(=O)N[C@@H](C)C(=O)N[C@@H](CC(C)C)C(=O)N[C@@H](CCC(=O)O)C(=O)N[C@@H](CO)C(=O)N[C@@H](CC(C)C)C(=O)N[C@@H](CO)C(=O)N[C@H](C(=O)N[C@H](C(=O)N[C@H](C(=O)N[C@@H](Cc1ccc(O)cc1)C(=O)N[C@@H](CC(N)=O)C(=O)O)[C@@H](C)CC)[C@@H](C)O)[C@@H](C)O` [Peptide 90.0231], the IC50 in experiment [5] turned out to be 1150 nM. In the case of `CC(C)C[C@H](NC(=O)[C@@H](NC(=O)[C@H](CC(=O)O)NC(=O)[C@H](CC(C)C)NC(=O)[C@@H](NC(=O)[C@@H](NC(=O)[C@@H]1CCCN1C(=O)[C@H](CC(=O)O)NC(=O)[C@H](CO)NC(=O)[C@@H](N)CCCNC(=N)N)C(C)C)[C@@H](C)O)C(C)C)C(=O)N[C@@H](Cc1ccc(O)cc1)C(=O)O` [Peptide 1470.06], the IC50 in experiment [1] is over 20000 nM. Compound `CC[C@H](C)[C@H](NC(=O)CNC(=O)[C@H](CC(C)C)NC(=O)[C@@H](N)[C@@H](C)O)C(=O)N[C@@H](CCSC)C(=O)N[C@H](C(=O)NCC(=O)N[C@H](C(=O)N[C@@H](CC(C)C)C(=O)N[C@H](C(=O)O)C(C)C)C(C)C)[C@@H](C)CC` [Peptide 9013.0251] showed an IC50 in experiment [2] of 195 nM. In the case of `CC[C@H](C)[C@H](NC(=O)[C@H](CC(C)C)NC(=O)[C@@H](NC(=O)[C@H](CCC(=O)O)NC(=O)[C@@H](N)CC(N)=O)[C@@H](C)CC)C(=O)N[C@@H](CCCNC(=N)N)C(=O)N[C@@H](CS)C(=O)N[C@H](C(=O)N[C@H](C(=O)N[C@@H](CS)C(=O)N[C@@H](CCC(N)=O)C(=O)N[C@@H](CCCNC(=N)N)C(=O)N1CCC[C@H]1C(=O)N[C@@H](CC(C)C)C(=O)N[C@@H](CS)C(=O)O)[C@@H](C)CC)[C@@H](C)CC` [Peptide 85.0031], the IC50 in experiment [3] (read-out: Binding affinity DRB1 *0405) came out at 7420 nM. On to `CC[C@H](C)[C@H](NC(=O)[C@H](CCC(N)=O)NC(=O)[C@@H](NC(=O)[C@@H](NC(=O)[C@@H]1CCCN1C(=O)[C@@H]1CCCN1C(=O)[C@@H](NC(=O)[C@H](CCCCN)NC(=O)[C@@H](NC(=O)[C@@H](NC(=O)[C@H](CC(N)=O)NC(=O)[C@@H](N)CC(C)C)[C@@H](C)O)C(C)C)[C@@H](C)CC)[C@@H](C)O)C(C)C)C(=O)N[C@@H](CO)C(=O)N[C@H](C(=O)NCC(=O)O)[C@@H](C)O` [Peptide 90.0028], for which the IC50 in experiment [5] is 12100 nM. `CC(C)C[C@H](NC(=O)[C@H](CO)NC(=O)[C@H](CC(C)C)NC(=O)[C@@H](N)CO)C(=O)NCC(=O)N[C@@H](Cc1ccccc1)C(=O)N[C@@H](CC(C)C)C(=O)N[C@@H](Cc1ccccc1)C(=O)N[C@@H](CC(C)C)C(=O)N[C@H](C(=O)O)C(C)C` [Peptide 1419.52] returned an IC50 in experiment [2] of 3.3 nM. Same read-out and setting: the value for `CC(C)C[C@H](NC(=O)[C@H](CC(N)=O)NC(=O)[C@H](Cc1ccc(O)cc1)NC(=O)[C@H](CC(C)C)NC(=O)CNC(=O)[C@@H](NC(=O)[C@H](CC(N)=O)NC(=O)[C@@H](NC(=O)[C@@H](N)CC(C)C)[C@@H](C)O)[C@@H](C)O)C(=O)O` [Peptide 1481.17] was 13600 nM. For the compound `CC[C@H](C)[C@H](NC(=O)[C@H](CCCCN)NC(=O)[C@H](CC(=O)O)NC(=O)[C@H](CCC(N)=O)NC(=O)[C@H](CS)NC(=O)[C@@H](NC(=O)[C@H](CC(N)=O)NC(=O)[C@H](CC(C)C)NC(=O)[C@@H](N)CCCNC(=N)N)C(C)C)C(=O)N[C@@H](CC(C)C)C(=O)N[C@H](C(=O)N[C@@H](Cc1c[nH]cn1)C(=O)N[C@@H](Cc1ccc(O)cc1)C(=O)N[C@@H](CCC(=O)O)C(=O)N[C@@H](CC(N)=O)C(=O)O)[C@@H](C)O` [Peptide 90.0160], in experiment [3], the IC50 came to 6710 nM. For the compound `CC[C@H](C)[C@H](NC(=O)[C@H](Cc1ccc(O)cc1)NC(=O)[C@@H](NC(=O)[C@@H](N)CCC(=O)O)[C@@H](C)CC)C(=O)N[C@H](C(=O)N[C@@H](CCC(=O)O)C(=O)N[C@@H](CCC(=O)O)C(=O)N[C@H](C(=O)N[C@H](C(=O)N[C@@H](CS)C(=O)N[C@H](C(=O)N[C@@H](CC(C)C)C(=O)N[C@H](C(=O)N[C@@H](C)C(=O)NCC(=O)O)C(C)C)[C@@H](C)O)[C@@H](C)O)[C@@H](C)O)[C@@H](C)CC` [Peptide 90.0251], the IC50 in experiment [5] amounted to 15200 nM. Same read-out and setting: next, `CC[C@H](C)[C@H](NC(=O)CNC(=O)[C@H](Cc1ccc(O)cc1)NC(=O)[C@H](C)N)C(=O)N[C@@H](CO)C(=O)N[C@@H](Cc1ccccc1)C(=O)N[C@@H](CCSC)C(=O)N[C@@H](CCC(=O)O)C(=O)N[C@@H](CC(C)C)C(=O)N[C@H](C(=O)N[C@@H](CCCNC(=N)N)C(=O)N1CCC[C@H]1C(=O)N[C@@H](Cc1ccccc1)C(=O)N[C@@H](CCCCN)C(=O)N[C@@H](CO)C(=O)O)C(C)C` [Peptide 89.0060]: 1820 nM. Compound `CC[C@H](C)[C@H](N)C(=O)N[C@@H](CC(C)C)C(=O)N[C@@H](CC(N)=O)C(=O)N[C@H](C(=O)N[C@H](C(=O)N[C@@H](Cc1ccc(O)cc1)C(=O)N[C@@H](CC(C)C)C(=O)N[C@@H](Cc1c[nH]c2ccccc12)C(=O)N[C@@H](Cc1c[nH]c2ccccc12)C(=O)N[C@H](C(=O)O)C(C)C)[C@@H](C)O)[C@@H](C)O` [Peptide 9013.0195] registered an IC50 in experiment [2] of 1020 nM. The compound `CC[C@H](C)[C@H](NC(=O)[C@H](Cc1c[nH]c2ccccc12)NC(=O)[C@H](CCC(=O)O)NC(=O)[C@@H]1CCCN1)C(=O)N[C@@H](CCC(=O)O)C(=O)N[C@@H](CCCNC(=N)N)C(=O)N[C@@H](CCC(N)=O)C(=O)N[C@H](C(=O)N[C@H](C(=O)N[C@@H](CC(C)C)C(=O)N[C@@H](CCC(N)=O)C(=O)N[C@@H](Cc1c[nH]cn1)C(=O)N[C@@H](CO)C(=O)N[C@@H](Cc1ccccc1)C(=O)N[C@@H](CC(N)=O)C(=O)O)C(C)C)[C@@H](C)O` [Peptide 89.0049] yielded an IC50 in experiment [5] of 12100 nM. The compound `CC[C@H](C)[C@H](NC(=O)[C@H](Cc1ccccc1)NC(=O)[C@H](CC(C)C)NC(=O)[C@@H](NC(=O)[C@H](CCC(N)=O)NC(=O)[C@@H](NC(=O)[C@H](Cc1c[nH]cn1)NC(=O)[C@H](CC(C)C)NC(=O)[C@@H](N)CCC(N)=O)[C@@H](C)O)C(C)C)C(=O)O` [Peptide 9013.0103] showed an IC50 in experiment [2] of 1240 nM. Turning to `CC[C@H](C)[C@H](NC(=O)[C@H](C)NC(=O)[C@@H](NC(=O)[C@@H](NC(=O)[C@H](CC(N)=O)NC(=O)[C@H](CC(C)C)NC(=O)[C@H](Cc1ccccc1)NC(=O)[C@H](CCCCN)NC(=O)[C@@H](NC(=O)[C@H](CCCNC(=N)N)NC(=O)[C@H](CCC(N)=O)NC(=O)[C@H](CCCCN)NC(=O)[C@@H](N)CCC(=O)O)[C@@H](C)O)[C@@H](C)O)C(C)C)C(=O)N1CCC[C@H]1C(=O)N[C@@H](CC(=O)O)C(=O)O` [Peptide 1601.19], the IC50 in experiment [6] was found to be 257 nM.
